For two molecules, Kd and koff results are on record in publication PMC2409470 (2004).

By Kd is commonly meant the equilibrium constant for the complex coming apart. Read a high Kd as a looser complex. In general, koff refers to the rate constant with which the complex falls apart.

In assay [1] the target is trastuzumab F(ab′)2 fragments (human). Put plainly: SPR.
Assay [2] has the same target. Put plainly: SPR. The source holds these as a separate data set. (In general: In SPR one partner is held on a chip, and binding of the other changes the refractive index at the surface.)

B1: anti-Id scFv 40 (scFv, V domains shown)
VH: not shown
VL: SSELTQDPAVSVALGQTVRITCQGDSLRSYYASWYQQKPGQAPVLVIYGKNNRPSGIPDRFSGSSSGNTASLTITGAQAEDEADYYCNSSDPDQLLVVFGGGTKLTVL
As for B1, the Kd in assay [1] stood at 4.3 µM. This molecule yielded an off-rate (koff) in assay [2] of 0.00344 s⁻¹.

B2: anti-Id scFv 69 (scFv, V domains shown)
VH: not shown
VL: SSELTQDPAVSVALGQTVRITCQGDSLRSYYASWYQQKPGQAPVLVIYGKNNRPSGIPDRFSGSSSGNTASLTITGAQAEDEADYYCNSSEPTPPRVVFGGGTKLTVL
For B2, the koff in assay [2] came to 0.00122 s⁻¹.
